Data published in paper PMC7723054.
Some of the results follow.

What was measured:
Test in all cases: FOREST: bead pull-down of RNA structure library v1, barcode microarray; U1A/LIN28A: 20 mM HEPES pH 7.5, 80 mM KCl, 20 mM NaCl, 10% glycerol, 2 mM DTT, 0.1 ug/uL BSA, 4 C; BG4/CIRBP/DHX36: 10 mM Tris-HCl pH 7.5, 100 mM KCl (or LiCl),; high values mean tight binding
[1] = target: U1A (Homo sapiens, UniProt P09012)
[2] = target: T1, LIN28A (human?, UniProt Q9H9Z2 1-209)
T1 sequence: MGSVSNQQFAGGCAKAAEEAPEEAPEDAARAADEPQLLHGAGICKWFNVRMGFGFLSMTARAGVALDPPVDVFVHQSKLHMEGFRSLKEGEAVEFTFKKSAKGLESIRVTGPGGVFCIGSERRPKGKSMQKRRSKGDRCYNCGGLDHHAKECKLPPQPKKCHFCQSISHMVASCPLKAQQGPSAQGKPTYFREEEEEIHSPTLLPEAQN

[3] = target: T2, CIRBP (Homo sapiens, UniProt Q14011 1-172)
T2 sequence: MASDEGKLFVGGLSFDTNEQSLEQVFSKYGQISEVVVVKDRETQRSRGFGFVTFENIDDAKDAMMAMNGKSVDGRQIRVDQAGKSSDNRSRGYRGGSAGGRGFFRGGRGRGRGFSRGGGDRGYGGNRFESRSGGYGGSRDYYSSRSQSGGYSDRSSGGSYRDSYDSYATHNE

[4] = target: T3, DHX36 (Homo sapiens, UniProt Q9H2U1 1-1008)
T3 sequence: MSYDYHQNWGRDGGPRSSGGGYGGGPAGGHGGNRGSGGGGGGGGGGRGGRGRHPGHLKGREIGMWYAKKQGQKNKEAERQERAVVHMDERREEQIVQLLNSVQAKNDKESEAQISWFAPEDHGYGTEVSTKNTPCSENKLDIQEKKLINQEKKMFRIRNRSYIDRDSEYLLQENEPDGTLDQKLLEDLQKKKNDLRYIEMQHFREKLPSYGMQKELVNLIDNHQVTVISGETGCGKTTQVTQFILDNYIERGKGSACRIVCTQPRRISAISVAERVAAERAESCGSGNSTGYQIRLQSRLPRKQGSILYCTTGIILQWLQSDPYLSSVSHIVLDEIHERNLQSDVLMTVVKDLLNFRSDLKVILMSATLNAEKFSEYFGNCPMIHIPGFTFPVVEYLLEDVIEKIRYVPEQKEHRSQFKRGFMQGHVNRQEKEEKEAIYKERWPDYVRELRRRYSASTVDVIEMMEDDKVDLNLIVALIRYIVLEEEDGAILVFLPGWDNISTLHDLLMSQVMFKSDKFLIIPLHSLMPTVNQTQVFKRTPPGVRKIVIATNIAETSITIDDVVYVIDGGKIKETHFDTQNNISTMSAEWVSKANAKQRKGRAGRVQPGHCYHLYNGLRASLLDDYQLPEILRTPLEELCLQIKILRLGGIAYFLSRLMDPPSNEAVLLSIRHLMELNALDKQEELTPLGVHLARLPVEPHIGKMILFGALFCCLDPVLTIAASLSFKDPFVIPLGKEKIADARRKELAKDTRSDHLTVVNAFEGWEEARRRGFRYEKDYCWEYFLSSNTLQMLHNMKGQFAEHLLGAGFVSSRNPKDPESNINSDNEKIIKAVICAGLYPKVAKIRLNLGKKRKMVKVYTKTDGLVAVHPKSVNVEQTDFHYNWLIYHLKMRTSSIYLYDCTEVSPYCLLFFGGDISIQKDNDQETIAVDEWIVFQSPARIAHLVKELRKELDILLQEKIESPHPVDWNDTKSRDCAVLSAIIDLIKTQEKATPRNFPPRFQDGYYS

B1: hsa-mir-4439 (structured_RNA)
RNA: GGGAAGAGUGCCGUGACCUAGCUUUUACGGUGUACGAAGUUUCAGCGCAUUUUAUCUAAGAUACACACAAAGCAAAUGCGCUGAAGCUUCGUGCAC
binding signal [1]: 2.73 z-score | binding signal [2]: -0.0238 z-score | binding signal [3]: 0.0866 z-score | binding signal [4]: 0.00469 z-score

B2: hsa-mir-212 (structured_RNA)
RNA: GGGAACGCGGAUAGUUGAUUUUCCUGCGGGUGUACGAAGUUUCAGCCUUACUGCCCGGGCCGCCCUCAGUAAGCUGAAGCUUCGUGCAC
binding signal [1]: 1.41 z-score | binding signal [2]: 0.255 z-score | binding signal [3]: -0.0218 z-score | binding signal [4]: -0.00438 z-score

B3: hsa-mir-103b-1 (structured_RNA)
RNA: GGGAACGAAUAGGAAGGACGACAAUAUCGGUGUACGAAGUUUCAGCUGCUUGAUCCAUAUGCAACAAGGCAGCUGAAGCUUCGUGCAC
binding signal [1]: 1.44 z-score | binding signal [2]: 0.169 z-score | binding signal [3]: 2.05 z-score | binding signal [4]: 0.4 z-score

B4: hsa-mir-147a (structured_RNA)
RNA: GGGAUACUAAAGCCGGAUAACUACCUGGGGUGUACGAAGUUUCAGCACACACACCAGACUAUGGAAGCCAGUGUGCUGAAGCUUCGUGCAC
binding signal [1]: 1.46 z-score | binding signal [2]: -0.832 z-score | binding signal [3]: -1.46 z-score | binding signal [4]: -0.727 z-score

B5: hsa-mir-128-2 (structured_RNA)
RNA: GGGACUAGACAGUUACGCCUUCGAACUUGGUGUACGAAGUUUCAGCACGAGAGUGAGUAGCAGGUCUCGCUGAAGCUUCGUGCAC
binding signal [1]: 1.46 z-score | binding signal [2]: 1.12 z-score | binding signal [3]: 0.452 z-score | binding signal [4]: -0.0771 z-score

B6: hsa-mir-4643 (structured_RNA)
RNA: GGGAGCUUCGCAACGCCGAUACACACAUGGUGUACGAAGUUUCAGCUGUUCAUUCACAUGAUCAUAAGUGGACAGCUGAAGCUUCGUGCAC
binding signal [1]: 1.41 z-score | binding signal [2]: 0.0118 z-score | binding signal [3]: 0.54 z-score | binding signal [4]: 0.856 z-score

B7: hsa-mir-4511 (structured_RNA)
RNA: GGGACAUCUGGAGAUGCAUAUCGCCCAUGGUGUACGAAGUUUCAGCCCCUGCACUCAGUUUGCACAGGGGCUGAAGCUUCGUGCAC
binding signal [1]: 1.48 z-score | binding signal [2]: -1.43 z-score | binding signal [3]: -0.99 z-score | binding signal [4]: -0.781 z-score

B8: hsa-let-7i (structured_RNA)
RNA: GGGAAGACUCGAAAGUGUGUCCUGGCGAGGUGUACGAAGUUUCAGCGCUGUUGGUCGGGUUGUGACAUUGCCCGCUGUGGAGAUAACUGCGCUGAAGCUUCGUGCAC
binding signal [1]: 1.44 z-score | binding signal [2]: 2.87 z-score | binding signal [3]: 1.3 z-score | binding signal [4]: 0.363 z-score

B9: PARIS_ID44 (structured_RNA)
RNA: GGGAAAUAACGCCGGAUCUUAGUGUAAUGGUGUACGAAGUUUCAGCGGCUGUGGAGUGUAUGAAUUUAUAAAUCACUGGUCUUGUAAUUAAAAUUCAAACACUAUAGAAAAAGGCCGCUGAAGCUUCGUGCAC
binding signal [1]: 1.41 z-score | binding signal [2]: 1.64 z-score | binding signal [3]: 1.47 z-score | binding signal [4]: 0.605 z-score

B10: hsa-mir-3975 (structured_RNA)
RNA: GGGAAGCUUGCACCACGUAAGGAGGUCCGGUGUACGAAGUUUCAGCUAUUUCAAAAGACUAGAGGUAGGAAAUGAGGCUGAAGCUUCGUGCAC
binding signal [1]: 1.4 z-score | binding signal [2]: 1.2 z-score | binding signal [3]: 0.295 z-score | binding signal [4]: 0.0941 z-score

B11: hsa-mir-614 (structured_RNA)
RNA: GGGAAUCUCGCGCCGGUCACUCUUUGAGGGUGUACGAAGUUUCAGCCAGCCCUGCACUGAACGCUGAAGCUUCGUGCAC
binding signal [1]: 2.72 z-score | binding signal [2]: 0.813 z-score | binding signal [3]: -0.34 z-score | binding signal [4]: -0.199 z-score

B12: hsa-mir-6807 (structured_RNA)
RNA: GGGAAUAGGCGGCCUACUAUCCAUCUCGGGUGUACGAAGUUUCAGCAGAGGCUGUGGGCAGGGGGAGAUGUGAAGGAAAGAACUAGGACCCAUUCAUCCACUGCUGAAGCUUCGUGCAC
binding signal [1]: 1.43 z-score | binding signal [2]: 1.51 z-score | binding signal [3]: -0.487 z-score | binding signal [4]: 2.61 z-score

B13: hsa-mir-6765 (structured_RNA)
RNA: GGGAAAUAGUGGCAUUGCUAUAGGCACCGGUGUACGAAGUUUCAGCGUGUGUGGCGUGGGUGCUGCGGGGCCGUCAGGGUGCCUGCGGGACGCUCACGCUGAAGCUUCGUGCAC
binding signal [1]: 1.48 z-score | binding signal [2]: 0.343 z-score | binding signal [3]: -0.61 z-score | binding signal [4]: 1.27 z-score

B14: hsa-mir-3660 (structured_RNA)
RNA: GGGAAGAGCCCUUAUGGGGAAAACCACAGGUGUACGAAGUUUCAGCCAUUGUAAUAGUUCAUAUGGGCACUGGCUGAAGCUUCGUGCAC
binding signal [1]: 1.43 z-score | binding signal [2]: -0.0695 z-score | binding signal [3]: 0.315 z-score | binding signal [4]: -0.958 z-score

B15: hsa-mir-4489 (structured_RNA)
RNA: GGGAUAGGGUUAAGAUACCGGCGUUUGCGGUGUACGAAGUUUCAGCGCUGGGGACUGGAGAAGCUGAAGCUUCGUGCAC
binding signal [1]: 1.41 z-score | binding signal [2]: 2.2 z-score | binding signal [3]: 1.76 z-score | binding signal [4]: 1.78 z-score

B16: hsa-mir-5196 (structured_RNA)
RNA: GGGACAAAGACAAGGUAGGUGCGUAAUAGGUGUACGAAGUUUCAGCGUUGGGGAACAGGUGGUUAGCACUUCAUGCUGAAGCUUCGUGCAC
binding signal [1]: 1.44 z-score | binding signal [2]: 1.79 z-score | binding signal [3]: 1.61 z-score | binding signal [4]: 2.29 z-score

B17: G4_(GGGU)6 (structured_RNA)
RNA: GGGAACUCCUCCGGCUACGAUAGAGAGGGGUGUACGAAGUUUCAGCGGGUGGGUGGGUGGGUGGGUGGGUGCUGAAGCUUCGUGCAC
binding signal [1]: 1.42 z-score | binding signal [2]: 0.639 z-score | binding signal [3]: 2.81 z-score | binding signal [4]: 7.66 z-score

B18: hsa-mir-138-1 (structured_RNA)
RNA: GGGACAGAUCAACCAGGGGAUGACUAAUGGUGUACGAAGUUUCAGCAGGCCGUUGCCAAUCAGAGAACGGCUAGCUGAAGCUUCGUGCAC
binding signal [1]: 1.4 z-score | binding signal [2]: 0.469 z-score | binding signal [3]: 1 z-score | binding signal [4]: 0.18 z-score

B19: hsa-mir-4686 (structured_RNA)
RNA: GGGAAAUCAUUGAGCUCGACAUAUAGGCGGUGUACGAAGUUUCAGCUGUUGGCAGCCCAAGAUGACAGCUGAAGCUUCGUGCAC
binding signal [1]: 1.41 z-score | binding signal [2]: -0.54 z-score | binding signal [3]: -0.828 z-score | binding signal [4]: -0.596 z-score

B20: hsa-mir-4635 (structured_RNA)
RNA: GGGAAGGACUCGGCGAUAAGUGAUAACUGGUGUACGAAGUUUCAGCUGGAUCACGCCGACAACACUGGUCUGCUGAAGCUUCGUGCAC
binding signal [1]: 1.44 z-score | binding signal [2]: 2.12 z-score | binding signal [3]: -0.41 z-score | binding signal [4]: -0.738 z-score

B21: hsa-mir-384 (structured_RNA)
RNA: GGGAGCCAAUAGCCUCCCACGAUACCUGGGUGUACGAAGUUUCAGCGACAAUAUGUAUAAUGUUCAUAAGUCAUUCGCUGAAGCUUCGUGCAC
binding signal [1]: 1.46 z-score | binding signal [2]: 0.446 z-score | binding signal [3]: -0.46 z-score | binding signal [4]: 0.415 z-score

B22: hsa-mir-6815 (structured_RNA)
RNA: GGGACACAUGUGGCCGACCAUUGAAUAGGGUGUACGAAGUUUCAGCGUCAUUUCCCAUCACUAAUGGCGCUGAAGCUUCGUGCAC
binding signal [1]: 1.41 z-score | binding signal [2]: -0.89 z-score | binding signal [3]: -0.144 z-score | binding signal [4]: -1.09 z-score
